Columns and labels:
[1] = target: HA-tagged sCD74(73-232) (human) (UniProt P04233); test: microscale thermophoresis; 50 nM MST-Red-MIF titrated with HA-sCD74(73-232) up to 2 µM
[2] = target: HA-tagged sCD74(73-232) (human) (UniProt P04233); test: microscale thermophoresis; 50 nM MST-Red-MIF titrated with HA-sCD74(73-232) in the presence of 2 µM msR4M-L1
[3] = target: CD74 expressed on HEK293-CD74 transfectants (UniProt P04233); test: flow cytometry, Alexa 488-MIF on HEK293-CD74 transfectants, no msR4M-L1; the control plot prints Q3 1,02
[4] = target: CD74 expressed on HEK293-CD74 transfectants (UniProt P04233); test: flow cytometry, Alexa 488-MIF on HEK293-CD74 transfectants in the presence of 5 x-fold msR4M-L1; the control plot prints Q3 1,02

B1: human macrophage migration-inhibitory factor (MIF) (ligand, UniProt P14174 2-115, looked up)
chain: PMFIVNTNVPRASVPDGFLSELTQQLAQATGKPPQYIAVHVVPDQLMAFGGSSEPCALCSLHSIGKIGGAQNRSYSKLLCGLLAERLRISPDRVYINYYDMNAANVGWNNSTFA
modifications: Alexa-Fluor 488 or Monolith NT-647 (MST-Red) label where so named
Kd [1]: 54.5 nM
Kd [2]: 21.8 nM
Q3 (share of events in the Alexa 488-MIF+ quadrant) [3]: 5.05
Q3 (share of events in the Alexa 488-MIF+ quadrant) [4]: 4.89

Source: patent publication US20230242616A1, “CHEMOKINE-SELECTIVE CXCR4 ECTODOMAIN-DERIVED (POLY)PEPTIDE” (Ludwig-Maximilians-Universität München, priority 2020, published 2023)
